pEC50: −log10 of the molar value.

By UniProt entry, the sequences of proteins in these tests, tags left out.
UniProt P61169, whole entry: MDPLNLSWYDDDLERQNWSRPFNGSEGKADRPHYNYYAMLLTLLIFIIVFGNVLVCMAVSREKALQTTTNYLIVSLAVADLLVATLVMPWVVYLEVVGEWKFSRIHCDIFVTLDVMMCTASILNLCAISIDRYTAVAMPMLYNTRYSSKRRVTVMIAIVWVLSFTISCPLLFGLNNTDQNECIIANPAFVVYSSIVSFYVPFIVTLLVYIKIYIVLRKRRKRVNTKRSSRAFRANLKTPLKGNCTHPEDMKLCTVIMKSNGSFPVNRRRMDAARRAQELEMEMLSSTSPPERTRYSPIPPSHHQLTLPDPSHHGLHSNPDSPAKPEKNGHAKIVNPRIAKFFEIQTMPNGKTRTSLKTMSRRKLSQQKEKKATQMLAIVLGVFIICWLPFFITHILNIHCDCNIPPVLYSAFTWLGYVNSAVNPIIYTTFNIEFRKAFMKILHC

In general, pEC50 refers to the EC50 on a negative log10 scale, so that one unit is a factor of ten.

The assay concerns the target D(2) dopamine receptor (Rattus norvegicus, UniProt P61169). As to the kind of experiment: Agonist activity at rat D2 dopamine receptor expressed in CHOK1 cells assessed as [35S]GTPgammaS binding after 90 mins by liquid scintillation counter. Type of assay: functional, cell-based, CHO-K1.

`CN1CCc2cccc3c2[C@H]1Cc1ccc(O)c(O)c1-3` [APOMORPHINE]: the pEC50 was 7.52.

(Values after ChEMBL document CHEMBL1799928, “New 2-thioether-substituted apomorphines as potent and selective dopamine D₂ receptor agonists” (Eur J Med Chem, 2011).)
